# From article PMC8286815 (Biochemical Journal, 2021)
# Biological target: T1, SARS-CoV-2 RdRp (nsp12/nsp7/nsp8) (Severe acute respiratory syndrome coronavirus 2, UniProt P0DTD1)
# T1 construct: added initiator Met before nsp12 (N); made in house; host or cells: Sf9 insect cells (Spodoptera frugiperda), baculovirus
# Experiment: Gel-based polymerisation (primer-extension) assay
# Format: biochemical
compound,measurement,value
O=C1C(=O)N(Cc2ccc(Cl)c(Cl)c2)c2ccccc21 [MDK-83190],Inhibition of RNA duplex formation,partial inhibition
